In test [1] the target is purified rabbit bone collagenase (Oryctolagus cuniculus, UniProt P13943). In words: Collagenase inhibitor assay, rabbit bone collagenase. The method, then: (§1) The test is performed essentially as in Cawston and Barrett Anal. Biochem. 99, 340-345 (1979). Compounds for testing are dissolved in methanol and added to purified rabbit bone collagenase or human collagenase purified from culture supernatants from the human lung fibroblast cell line, WI-38, diluted in a suitable aqueous buffer. After a 5 min pre-incubation at 37° C., the assay tubes are cooled to 4° C. and ^14 C-acetylated rat skin Type I collagen is added. The assay tubes are incubated at 37° C. overnight. The ^14 C-collagen forms insoluble fibrils which are the substrate for the enzyme.
(§2) To terminate the assay, the assay tubes are spun at 12000 rpm for 25 min. Undigested ^14 C-collagen remains as insoluble fibrils and is pelleted, while digested ^14 C-collagen remains as soluble peptides in the supernatant. A sample of the supernatant is taken for liquid scintillation counting.
(§3) The activity of collagenase inhibitors (IC50 : 50% inhibitory concentration) is expressed as the concentration of compound that inhibits a known (standard) concentration of enzyme by 50%, or as the % inhibition of the collagen degradation caused by the known (standard) concentration of enzyme, at a stated concentration of the compound.

By UniProt entry, the sequences of proteins in these tests, tags left out. Residues count along the entry.
UniProt P13943, 99-468 limits assumed: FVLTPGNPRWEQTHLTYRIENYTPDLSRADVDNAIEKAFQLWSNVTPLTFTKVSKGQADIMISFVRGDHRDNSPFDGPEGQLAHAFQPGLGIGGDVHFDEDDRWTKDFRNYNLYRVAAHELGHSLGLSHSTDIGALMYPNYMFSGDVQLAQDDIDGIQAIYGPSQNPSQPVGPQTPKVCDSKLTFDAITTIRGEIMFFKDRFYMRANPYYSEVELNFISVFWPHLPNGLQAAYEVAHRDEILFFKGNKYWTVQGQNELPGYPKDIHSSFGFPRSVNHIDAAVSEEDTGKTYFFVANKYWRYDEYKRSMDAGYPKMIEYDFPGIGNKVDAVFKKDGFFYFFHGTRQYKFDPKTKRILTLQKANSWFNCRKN
UniProt P03956, 100-469 limits assumed: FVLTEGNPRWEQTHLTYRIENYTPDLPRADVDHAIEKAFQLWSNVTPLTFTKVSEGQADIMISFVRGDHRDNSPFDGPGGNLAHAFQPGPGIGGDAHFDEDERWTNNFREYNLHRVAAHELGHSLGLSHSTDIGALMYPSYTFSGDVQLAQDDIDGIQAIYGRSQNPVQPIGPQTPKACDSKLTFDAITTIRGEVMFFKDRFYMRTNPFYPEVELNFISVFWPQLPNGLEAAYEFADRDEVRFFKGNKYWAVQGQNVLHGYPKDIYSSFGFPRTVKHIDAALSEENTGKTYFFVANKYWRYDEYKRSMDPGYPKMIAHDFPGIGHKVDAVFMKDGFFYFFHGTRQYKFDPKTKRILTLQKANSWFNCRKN

Test [2] deals with human collagenase purified from culture supernatants from the human lung fibroblast cell line, WI-38 (Homo sapiens, UniProt P03956). In words: Collagenase inhibitor assay, human lung fibroblast collagenase. The conditions noted are these: read-out: Inhibition of human lung fibroblast collagenase IC50; collagenase from WI-38 culture supernatants; 14C-acetylated rat skin Type I collagen substrate. Here is the method:
as §1, §2, §3

Read-outs that look alike come from different tables or passages of the source.

Usually IC50 stands for the concentration that gives 50% inhibition. Take `CNC(=O)[C@H](Cc1ccc(OC)cc1)NC(=O)C(CC(C)C)NCP(=O)(O)O` (some centres unmarked): the IC50 in test [1] (read-out: Inhibition of rabbit bone collagenase IC50, 14C-acetylated rat skin Type I collagen substrate, 37° C. overnight, tested form: disodium salt) stood at 27000 nM.

On to `CNC(=O)[C@H](Cc1ccc(OC)cc1)NC(=O)C(CC(C)C)NC(C)P(=O)(O)O` (single isomer, unassigned) [1 A/B], for which the IC50 was 1000 nM in test [1] (read-out: Inhibition of rabbit bone collagenase IC50 (same expt), isomers A, B and A/B compared in the same expt); 275 to 1900 nM in test [1] (read-out: Inhibition of rabbit bone collagenase IC50, 14C-acetylated rat skin Type I collagen substrate, 37° C. overnight); 510 nM in test [2]. For `CCC(NC(CC(C)C)C(=O)N[C@@H](Cc1ccc(OC)cc1)C(=O)NC)P(=O)(O)O` (single isomer, unassigned) [3 A/B], the IC50 in test [2] was found to be 330 nM.
